This is an account of results in patent publication US20260382574A1, “CRYSTAL OF SPIRO COMPOUND AND PREPARATION METHOD THEREFOR” (published 2026).

Some results are limits rather than exact numbers.

The nature of data set [1]: Chemical stability investigation test. Conditions: for Initial purity: before storage; for chemical stability: various influencing factors, form B 12 days, form A 12 and 30 days.
The test system of the next data set is cardiovascular system. The experiment in a line: Safety pharmacology: effect on cardiovascular system in cynomolgus monkeys. Conditions: 40, 160 and 600 mg/kg/day, nasogastric twice daily, 14 days.
The test system of the next data set is 413 kinases. The experiment in a line: KinaseProfiler, selectivity against 413 kinases. Particulars: compound 10 μM; ATP 10 μM; all of 413 kinases.
The test system of data set [2] is 47 safety-related targets. The experiment in a line: SAFETYscan, effect on 47 safety-related targets.

Take `CC(C)(C)[C@H](NC(=O)C(F)(F)F)C(=O)N1CC2(C[C@H]1C(=O)N[C@H](C#N)C[C@@H]1CCNC1=O)SCCS2` [Crystal form B of methyl tert-butyl ether solvate of compoun]: in data set [1], the Initial purity came to 98.41% and the chemical stability entry was “stable in chemical stability with no significant change in content”.

As to `CC(C)(C)[C@H](NC(=O)C(F)(F)F)C(=O)N1CC2(C[C@H]1C(=O)N[C@H](C#N)C[C@@H]1CCNC1=O)SCCS2`, in the data set with cardiovascular system, the arrhythmia entry is given as “no test sample-related arrhythmia was observed” and the cardiovascular system changes entry is given as “no test sample-related cardiovascular system changes were observed”. Besides, the “ECG parameters or blood pressure” value with cardiovascular system (throughout the entire experiment) was “no test sample-related changes in ECG parameters or blood pressure were observed”. In the data set on 413 kinases, the inhibition rate result is “less than 30%”. The EC50 in data set [2] (all of 47 safety-related targets, inhibition or activation) was above 100 µM. Also, the “inhibition or activation effect” value in data set [2] (at 100 μM, 47 safety-related targets) is recorded as “no significant inhibition or activation effect”.

With `CC(C)(C)[C@H](NC(=O)C(F)(F)F)C(=O)N1CC2(C[C@H]1C(=O)N[C@H](C#N)C[C@@H]1CCNC1=O)SCCS2` [Crystal form A of compound of formula (I)], in data set [1], the Initial purity was found to be 98.78% and the chemical stability result is listed as “stable in chemical stability with no significant change in content”.
